# Water solubility values, as collected for the OPERA models

From the experimental data distributed with OPERA 2.9.

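OPERA's authors assembled the values from existing databases and did not measure them anew. A listed value is a point estimate from one report or more. Method, purity and exact conditions of the single measurements are not given. The measured form (salt, isomer or mixture) is not always the one drawn. Unmarked limits or estimates from the upstream databases cannot be ruled out.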

Water solubility is log10 of mol/L, nominally at 25 °C; higher is more soluble.
Cells with "n/a" have no entry in this list.

compound,name,log solubility (log10 mol/L)
NS(=O)(=O)c1cc2c(s1)S(=O)(=O)CC(O)C2 (configuration not stated),n/a,-1.539
C=CC(=O)OCCOC(=O)NCCCC,"2-Propenoic acid, 2-[[(butylamino)carbonyl]oxy]ethyl ester",-1.635
CC(O)COC(=O)O[C@@H]1C[C@H](C)CC[C@H]1C(C)C (stereo partly drawn),n/a,-3.464
I/C=C/I,n/a,-3.22
CCC(C)(C)c1ccccc1O,"Phenol, 2-(1,1-dimethylpropyl)-",-2.491
CCCCCCCCCC(=O)Oc1ccc(C(=O)O)cc1,4-decanoyloxybenzoic Acid,-5.425
CNC(=O)Nc1ccc(OC)c(Cl)c1,"Urea, N-(3-chloro-4-methoxyphenyl)-N'-methyl-",-2.27
CCOC(=O)[C@@]12C[C@H]1C=CCCCCN(C)C(=O)[C@@H]1C[C@H](Oc3cc(-c4nc(C(C)C)cs4)nc4c(C)c(OC)ccc34)C[C@H]1C(=O)N2,n/a,-8.671
CC(C)(C)c1ccc(OC(=O)c2cc(C(C)(C)C)c(O)c(C(C)(C)C)c2)c(C(C)(C)C)c1,n/a,-7.341
CNS(=O)(=O)c1cc(OC)c(N)cc1C,"Benzenesulfonamide, 4-amino-5-methoxy-N,2-dimethyl-",-2.577
O=[N+]([O-])c1ccc(Cl)cc1O,"Phenol, 5-chloro-2-nitro-",-2.637
COc1ccc(N=Nc2c(O)ccc3ccccc23)c([N+](=O)[O-])c1,1-((4-Methoxy-2-nitrophenyl)azo)-2-naphthol,-7.991
CCCCCCCCCCCCCC(=O)OCC(COC(=O)CCCCCCCCCCCCC)OC(=O)CCCCCCCCCCCCC,"Tetradecanoic acid, 1,2,3-propanetriyl ester",-8.647
CCOC(=O)CNC(=O)COC(=O)c1ccccc1OC(C)=O,n/a,-1.874
O=C(NC(=O)c1c(F)cccc1F)Nc1cc(C(F)(F)F)cc(C(F)(F)F)c1Cl,Bistrifluron,-7.17
OCc1cnc(O)nc1O,"2,4(1H,3H)-Pyrimidinedione, 5-(hydroxymethyl)-",-0.509
O=c1c(Br)cccc(Br)c1O,"3,7-Dibromo-2-hydroxy-2,4,6-cycloheptatrien-1-one",-3.503
CCC(C)=C(CC(=O)O)C(=O)O,2-(1-Methylpropylidene)butanedioic acid,-2.301
CC(C)CCCCCCCCCCOC(=O)CC(C)CC(C)(C)C (configuration not stated),"Hexanoic acid, 3,5,5-trimethyl-, isotridecyl ester",-11.13
CCCCCCCCCCCC(=O)OCC(O)COCC(O)CO (configuration not stated),Polyglyceryl-2 laurate,-3.894
CCCCCC=CCC(CC(=O)O)C(=O)O (configuration not stated),"Butanedioic acid, 2-(2-octen-1-yl)-",-2.404
CC(=O)OC[C@H]1O[C@@](COC(=O)C(C)C)(O[C@H]2O[C@H](COC(C)=O)[C@@H](OC(=O)C(C)C)[C@H](OC(=O)C(C)C)[C@H]2OC(=O)C(C)C)[C@@H](OC(=O)C(C)C)[C@@H]1OC(=O)C(C)C,Saccharose acetate isobutyrate,-6.074
O=C(Nc1ccccc1)NS(=O)(=O)Nc1ccccc1,n/a,-3.75
O=C(O)c1ccc(NC(=O)[C@H](Cc2ccc(O)cc2)NC(=O)c2ccccc2)cc1,Bentiromide,-4.992
COC(=O)c1csc(C)c1S(=O)(=O)NC(=O)n1nc(OC)n(C)c1=O,Thiencarbazone-methyl,-2.951
COc1cc(C(=O)NCc2ccc(OCCN(C)C)cc2)cc(OC)c1OC,Trimethobenzamide,-3.989
O=S(=O)([O-])c1c(/N=N/c2c(O)ccc3ccccc23)ccc2ccccc12.O=S(=O)([O-])c1c(/N=N/c2c(O)ccc3ccccc23)ccc2ccccc12.[Ba+2],n/a,-5.839
CCCCN(c1nc(N2CCCC2)nc(N(CCCC)C2CC(C)(C)N(C)C(C)(C)C2)n1)C1CC(C)(C)N(C)C(C)(C)C1,n/a,-4.958
COc1cc2c3c(ccc4c5ccc6c7c(cc(OC)c(c1c34)c75)-c1ccccc1C6=O)C(=O)c1ccccc1-2,C.I. Vat Green 1,-5.599
CCOC(=O)ON=C(C)C(=O)c1ccccc1,"1,2-Propanedione, 1-phenyl-, 2-[O-(ethoxycarbonyl)oxime]",-3.264
CCCCCCCCCCCCCCCCCC[N+](C)(C)C.[Br-],"1-Octadecanaminium, N,N,N-trimethyl-, bromide (1:1)",-3.616
Nc1[nH]c(=O)nc2[nH]c(=O)[nH]c12,"2,8-Dihydroxyadenine",-4.922
Cc1cnc2nc[nH]c(=O)c2n1,6-Methyl-3H-pteridin-4-one,-1.649
CC(c1ccccc1)c1cc(C(=O)[O-])c(O)c(C(C)c2ccccc2)c1.CC(c1ccccc1)c1cc(C(=O)[O-])c(O)c(C(C)c2ccccc2)c1.[Zn+2] (configuration not stated),"Zinc(2+) 3,5-bis(1-phenylethyl)salicylate",-3.924
O=CCc1ccc2c(c1)OCO2,"1,3-benzodioxol-5-ylacetaldehyde",-1.959
C=CC(=O)NC(C)(C)C,tert-Butylacrylamide,-1.803
COc1ccc(CC(C)C=O)cc1 (configuration not stated),3-(4-Methoxyphenyl)-2-methylpropanal,-2.231
O=C(NCCN1CCOCC1)c1ccc(Cl)cc1,Moclobemide,-2.38
CCC(CC)(CC(=O)Nc1cccc(/C=C/c2nc(C3CCC3)cs2)c1)C(=O)O,Cinalukast,-5.675
COC(=O)c1ccc(N)cc1,"Benzoic acid, 4-amino-, methyl ester",-1.59
COc1cc2nc(N(C)CCCNC(=O)C3CCCO3)nc(N)c2cc1OC (configuration not stated),Alfuzosin,-3.14
O=C1c2cccc(S(=O)(=O)O)c2C(=O)c2cccc(Cl)c21,n/a,0.19
FC(F)(F)C(F)(F)C(F)(F)C(F)(F)C(F)(F)C(F)(F)C(F)(F)C(F)(F)Br,1-Bromoheptadecafluorooctane,-7.397
O=C(Nc1ncccn1)c1cnccn1,N-(Pyrimidin-2-yl)pyrazine-2-carboxamide,-0.304
Cc1cc(N)ccc1Br,4-Bromo-m-toluidine,-2.719

A selection of 7 entries from above:

compound,name,log solubility (log10 mol/L)
COc1ccc(N=Nc2c(O)ccc3ccccc23)c([N+](=O)[O-])c1,1-((4-Methoxy-2-nitrophenyl)azo)-2-naphthol,-7.991
CCCCCCCCCCCCCC(=O)OCC(COC(=O)CCCCCCCCCCCCC)OC(=O)CCCCCCCCCCCCC,"Tetradecanoic acid, 1,2,3-propanetriyl ester",-8.647
CC(C)CCCCCCCCCCOC(=O)CC(C)CC(C)(C)C (configuration not stated),"Hexanoic acid, 3,5,5-trimethyl-, isotridecyl ester",-11.13
CCC(C)(C)c1ccccc1O,"Phenol, 2-(1,1-dimethylpropyl)-",-2.491
COc1cc(C(=O)NCc2ccc(OCCN(C)C)cc2)cc(OC)c1OC,Trimethobenzamide,-3.989
CNC(=O)Nc1ccc(OC)c(Cl)c1,"Urea, N-(3-chloro-4-methoxyphenyl)-N'-methyl-",-2.27
CC(=O)OC[C@H]1O[C@@](COC(=O)C(C)C)(O[C@H]2O[C@H](COC(C)=O)[C@@H](OC(=O)C(C)C)[C@H](OC(=O)C(C)C)[C@H]2OC(=O)C(C)C)[C@@H](OC(=O)C(C)C)[C@@H]1OC(=O)C(C)C,Saccharose acetate isobutyrate,-6.074